Assay results taken from patent publication US20130225488A1 (CADILA HEALTHCARE, published 2013).

Target: Human GLP-1 receptor (human) (UniProt P43220)
Assay: cell-based or functional assay

- cAMP release, % activity with respect to control; test compound 1 nM: 89%
- cAMP release, % activity with respect to control; test compound 10 nM: 96%
- cAMP release, % activity with respect to control; test compound 100 nM: 99%
- cAMP release, % activity with respect to control; test compound 1 µM: 99%
- cAMP release, % activity with respect to control; test compound 10 µM: 99%
Substance: Exendin-4 (from UniProt P26349) (peptide)
